From publication PMC7201283, “Crystal structure of the NS3-like helicase from Alongshan virus” (IUCrJ, 2020)

System: Nc1ncnc2c1ncn2[C@@H]1O[C@H](COP(=O)(O)OP(=O)(O)OP(=O)(O)O)[C@@H](O)[C@H]1O
Test: purified protein
Settings: 20 mM Tris-HCl pH 8.0, 5 mM DTT, 10 mM MgCl2, 28°C, 16 nM enzyme, no RNA

Substance ALSV NS3-Hel (Alongshan virus) has a Km of 55 ± 8 µM and a kcat of 0.61 ± 0.04 s⁻¹.
